# OPERA 2.9 data: melting point values

Source: data files of OPERA 2.9 (Mansouri et al.), github.com/kmansouri/OPERA.

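These are experimental values that the OPERA curators gathered from public databases to train and test their QSAR models. The files give a single number for a compound and property, which may rest on several reports. Conditions of the individual experiments are not part of the data. The measured form (salt, isomer or mixture) is not always the one drawn. Unmarked limits or estimates from the upstream databases cannot be ruled out.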

Melting points are in °C.

mp (°C),structure (SMILES)
190,Nc1cc2c(cc1C(=O)O)OCCO2
181,O=C(O)c1ccc(CS(=O)(=O)c2ccccc2)o1
80,Nc1ccc(OCc2cccc(F)c2)c(Cl)c1
61,CN(C)c1ccc(Cn2nccc2N)cc1
136,CSc1nn(-c2ccccc2)c(N)c1C#N
102,COc1cccc(CNC(=O)CCl)c1
104,CCN(CC)S(=O)(=O)c1ccc(NC(=O)CCl)cc1
103,CS(=O)(=O)Nc1ccccc1N
116,CN1CCN(CCC=C2c3ccccc3Sc3ccc(S(=O)(=O)N(C)C)cc32)CC1
135,COc1cc(OC)c(C(C)=O)cc1Cl
56,ClCc1csc(-c2ccccc2Cl)n1
128,N#CCc1ccc(-n2cccn2)cc1
119,Cc1ccc(C=CC(=O)O)o1
251,O=C(O)c1ccc(Nc2ccccc2)c([N+](=O)[O-])c1
63,CC(C)(C)OC(=O)NC1CC1
75,CC(=O)NC1(C#N)CCC(Cl)C1 (centres undefined)
245,O=C(O)c1cc(-c2ccc(Cl)cc2)nc2ccccc12
92,COc1ccc(C=NO)cc1OC
125,CC(C)(C)NC(=O)c1ccc(N)cc1
65.5,COC(=O)c1ccnnc1
184,CC(C=CC=C(C)C=C[C@H]1C(C)=C[C@H](O)CC1(C)C)=CC=CC=C(C)C=CC=C(C)[C@H]1C=C2C(C)(C)C[C@H](O)C[C@@]2(C)O1
296,O=C(O)Cn1c(=O)[nH]c2ccccc2c1=O
212,Cl.O=C(CCCN1CCC(O)(c2cccc(C(F)(F)F)c2)CC1)c1ccc(F)cc1
55,O=C(O)Cc1ccc2c(c1)OCCO2
229,O=C(O)c1cc(Cl)c2ccccc2c1O
116,Clc1ccc(N2CCCC2)nn1
109,O=C(O)CCCc1nc(-c2ccc(Cl)cc2)no1
233,Cc1nn(-c2ccccc2)c(Cl)c1C(=O)O
0,C=CC(=O)OCCCCCCCCCC
156,NC(=O)Nc1ccc(N)cc1
81,CC(=O)NCc1ccc(S(=O)(=O)Cl)s1
147,S=c1[nH]nc(NCc2ccccc2)s1
202,O=C(Nc1ccccc1C(=O)O)c1ccccc1Br

A selection of 4 entries from above:

structure (SMILES)	mp (°C)
O=C(O)Cn1c(=O)[nH]c2ccccc2c1=O	296
Nc1ccc(OCc2cccc(F)c2)c(Cl)c1	80
CN(C)c1ccc(Cn2nccc2N)cc1	61
CC(=O)NC1(C#N)CCC(Cl)C1 (centres undefined)	75